Results reported in BindingDB's records for 14684324.

Key:
Mu-type opioid receptor = Mu-type opioid receptor (Homo sapiens, UniProt P35372); assay: Concentration required to stimulate [35S]GTP-gamma-S, binding to human opioid receptor mu 1 in cell membrane
Nociceptin receptor = Nociceptin receptor (Homo sapiens, UniProt P41146); assay: Concentration required to stimulate [35S]GTP-gamma-S, binding to human NOP receptor in cell membrane
[1] = molecular target: Kappa-type opioid receptor (Homo sapiens, UniProt P41145); assay: Concentration required to stimulate [35S]GTP-gamma-S, binding to human opioid receptor kappa 1 in cell membrane

For O=c1[nH]c2ccccc2n1[C@H]1CCN2[C@H](CCC[C@H]2C2CCCCC2)C1, the EC50 (Mu-type opioid receptor) was over 10 µM, the EC50 (Nociceptin receptor) was over 10 µM and the EC50 [1] was over 10 µM.
In the case of O=c1[nH]c2ccccc2n1[C@@H]1CCN2[C@H](CCC[C@H]2C2CCCCC2)C1, the EC50 (Mu-type opioid receptor) is reported as over 10 µM, the EC50 (Nociceptin receptor) is reported as 0.678 µM and the EC50 [1] is reported as 0.021 µM.
